Results reported in US9884093B2 (Eli Lilly and Company, priority 2015, dated 2018).

How the values were obtained:
[1] = Solubility and stability at 10 mg/mL, one week at 4° C. (visual, SEC-HPLC, RP-HPLC); assay type: physicochemical; settings: one week 4° C.
[2] = Pharmacokinetics in Cynomolgus monkeys; assay type: in vivo; settings: cynomolgus monkey, plasma; male Cynomolgus monkeys, IV 50 nmol/kg, mean n=2
[3] = T7Nm (and T7 for combinations), 4° C. and 40° C., four weeks

For `CC(C)C[C@H](NC(=O)[C@H](Cc1c[nH]c2ccccc12)NC(=O)[C@H](CCC(=O)O)NC(=O)[C@@H](NC(=O)[C@H](Cc1ccccc1)NC(=O)[C@H](CCC(=O)O)NC(=O)[C@H](CCCCNC(=O)COCCOCCNC(=O)COCCOCCNC(=O)CC[C@H](NC(=O)CC[C@H](NC(=O)CCCCCCCCCCCCCCCCC(=O)O)C(=O)O)C(=O)O)NC(=O)[C@H](C)NC(=O)[C@H](CCCCN)NC(=O)[C@H](CCCCN)NC(=O)C(C)(C)NC(=O)[C@H](CC(=O)O)NC(=O)[C@H](CC(C)C)NC(=O)[C@H](Cc1ccc(O)cc1)NC(=O)[C@H](CCCCN)NC(=O)[C@H](CO)NC(=O)[C@H](Cc1ccc(O)cc1)NC(=O)[C@H](CC(=O)O)NC(=O)[C@H](CO)NC(=O)[C@@H](NC(=O)[C@H](Cc1ccccc1)NC(=O)[C@@H](NC(=O)CNC(=O)[C@H](CCC(N)=O)NC(=O)C(C)(C)NC(=O)[C@@H](N)Cc1ccc(O)cc1)[C@@H](C)O)[C@@H](C)O)C(C)C)C(=O)N[C@@H](CC(C)C)C(=O)N[C@@H](CCC(=O)O)C(=O)N[C@H](C(=O)NCC(=O)N1CCC[C@H]1C(=O)N[C@@H](CO)C(=O)N[C@@H](CO)C(=O)NCC(=O)N[C@@H](C)C(=O)N1CCC[C@H]1C(=O)N1CCC[C@H]1C(=O)N1CCC[C@H]1C(=O)N[C@@H](CO)C(N)=O)[C@@H](C)O` [Example 1], the “Δ % HMW Peak” value ([1]; C6N) was 0.13%, the “Δ % Main Peak” value ([1]; C6N) was −0.02% and the “Δ % HMW Peak” value ([1]; C7N) was 0%. For the same compound, the “Δ % Main Peak” value ([1]; C7N) was 0.26%, the “Δ % HMW Peak” value ([1]; H6.5N) was −0.02% and the “Δ % Main Peak” value ([1]; H6.5N) was −0.39%. The “Δ % HMW Peak” value ([1]; H7.5N) was 0.35%, the C0 [2] was 1180 nM and the clearance [2] was 1.36 mL/h/kg. The “Sites of degradation by LC-MS” value [3] was “No major sites of degradation are identified”.
With `CC(C)C[C@H](NC(=O)[C@H](Cc1c[nH]c2ccccc12)NC(=O)[C@H](CCC(=O)O)NC(=O)[C@@H](NC(=O)[C@H](Cc1ccccc1)NC(=O)[C@H](CCC(=O)O)NC(=O)[C@H](CCCCNC(=O)COCCOCCNC(=O)COCCOCCNC(=O)CC[C@H](NC(=O)CC[C@H](NC(=O)CCCCCCCCCCCCCCCCCCC(=O)O)C(=O)O)C(=O)O)NC(=O)[C@H](C)NC(=O)[C@H](CCCCN)NC(=O)[C@H](CCCCN)NC(=O)C(C)(C)NC(=O)[C@H](CC(=O)O)NC(=O)[C@H](CC(C)C)NC(=O)[C@H](Cc1ccc(O)cc1)NC(=O)[C@H](CCCCN)NC(=O)[C@H](CO)NC(=O)[C@H](Cc1ccc(O)cc1)NC(=O)[C@H](CC(=O)O)NC(=O)[C@H](CO)NC(=O)[C@@H](NC(=O)[C@H](Cc1ccccc1)NC(=O)[C@@H](NC(=O)CNC(=O)[C@H](CCC(N)=O)NC(=O)C(C)(C)NC(=O)[C@@H](N)Cc1ccc(O)cc1)[C@@H](C)O)[C@@H](C)O)C(C)C)C(=O)N[C@@H](CC(C)C)C(=O)N[C@@H](CCC(=O)O)C(=O)N[C@H](C(=O)NCC(=O)N1CCC[C@H]1C(=O)N[C@@H](CO)C(=O)N[C@@H](CO)C(=O)NCC(=O)N[C@@H](C)C(=O)N1CCC[C@H]1C(=O)N1CCC[C@H]1C(=O)N1CCC[C@H]1C(=O)N[C@@H](CO)C(N)=O)[C@@H](C)O` [Example 2] the “Δ % HMW Peak” value ([1]; C6N) was −0.03%, the “Δ % Main Peak” value ([1]; C6N) was 0.08% and the “Δ % HMW Peak” value ([1]; C7N) was −0.06%. For the same compound, the “Δ % Main Peak” value ([1]; C7N) was −0.26%, the “Δ % HMW Peak” value ([1]; H6.5N) was 0.06% and the “Δ % HMW Peak” value ([1]; H7.5N) was −0.15%. The “Δ % Main Peak” value ([1]; H7.5N) was −0.87%.
With `CC(C)C[C@H](NC(=O)[C@H](Cc1c[nH]c2ccccc12)NC(=O)[C@H](CCC(=O)O)NC(=O)[C@@H](NC(=O)[C@H](Cc1ccccc1)NC(=O)[C@H](CCC(=O)O)NC(=O)[C@H](CCCCNC(=O)COCCOCCNC(=O)COCCOCCNC(=O)CC[C@H](NC(=O)CC[C@H](NC(=O)CCCCCCCCCCCCCCCCC(=O)O)C(=O)O)C(=O)O)NC(=O)[C@H](C)NC(=O)[C@H](CCCCN)NC(=O)[C@H](CCCCN)NC(=O)C(C)(C)NC(=O)[C@H](CC(=O)O)NC(=O)[C@H](CC(C)C)NC(=O)[C@H](Cc1ccc(O)cc1)NC(=O)[C@H](CCCCN)NC(=O)[C@H](CO)NC(=O)[C@H](Cc1ccc(O)cc1)NC(=O)[C@H](CC(=O)O)NC(=O)[C@H](CO)NC(=O)[C@H](CC(C)C)NC(=O)[C@H](Cc1ccccc1)NC(=O)[C@@H](NC(=O)CNC(=O)[C@H](CCC(N)=O)NC(=O)C(C)(C)NC(=O)[C@@H](N)Cc1ccc(O)cc1)[C@@H](C)O)C(C)C)C(=O)N[C@@H](CC(C)C)C(=O)N[C@@H](CCC(=O)O)C(=O)N[C@H](C(=O)NCC(=O)N1CCC[C@H]1C(=O)N[C@@H](CO)C(=O)N[C@@H](CO)C(=O)NCC(=O)N[C@@H](C)C(=O)N1CCC[C@H]1C(=O)N1CCC[C@H]1C(=O)N1CCC[C@H]1C(=O)N[C@@H](CO)C(N)=O)[C@@H](C)O` [Example 3] the “Δ % HMW Peak” value ([1]; C6N) was −0.01%, the “Δ % Main Peak” value ([1]; C6N) was 0.08% and the “Δ % HMW Peak” value ([1]; C7N) was 0.16%. The “Δ % Main Peak” value ([1]; C7N) was −0.18%, the “Δ % HMW Peak” value ([1]; H6.5N) was −0.03% and the “Δ % Main Peak” value ([1]; H6.5N) was −0.58%. The “Δ % HMW Peak” value ([1]; H7.5N) was −0.09%.
In the case of `CC(C)C[C@H](NC(=O)[C@H](Cc1c[nH]c2ccccc12)NC(=O)[C@H](CCC(=O)O)NC(=O)[C@@H](NC(=O)[C@H](Cc1ccccc1)NC(=O)[C@H](CCC(=O)O)NC(=O)[C@H](CCCCNC(=O)COCCOCCNC(=O)COCCOCCNC(=O)CC[C@H](NC(=O)CC[C@H](NC(=O)CCCCCCCCCCCCCCCCC(=O)O)C(=O)O)C(=O)O)NC(=O)[C@H](C)NC(=O)[C@H](CCCCN)NC(=O)[C@H](CCCCN)NC(=O)C(C)(C)NC(=O)[C@H](CC(=O)O)NC(=O)[C@H](CC(C)C)NC(=O)[C@H](Cc1ccc(O)cc1)NC(=O)[C@H](CCCCN)NC(=O)[C@H](CO)NC(=O)[C@H](Cc1ccc(O)cc1)NC(=O)[C@H](CC(=O)O)NC(=O)[C@H](CO)NC(=O)[C@@H](NC(=O)[C@H](Cc1ccccc1)NC(=O)[C@@H](NC(=O)CNC(=O)[C@H](CCC(N)=O)NC(=O)C(C)(C)NC(=O)[C@@H](N)Cc1ccc(O)cc1)[C@@H](C)O)[C@@H](C)O)C(C)C)C(=O)N[C@@H](CC(C)C)C(=O)N[C@@H](CCC(=O)O)C(=O)N[C@H](C(=O)NCC(=O)N1CCC[C@H]1C(=O)N[C@@H](CO)C(=O)N[C@@H](CO)C(=O)NCC(N)=O)[C@@H](C)O` [Example 4], the “Δ % HMW Peak” value ([1]; C6N) is reported as 0.64%, the “Δ % Main Peak” value ([1]; C6N) is reported as −3.42% and the “Δ % HMW Peak” value ([1]; C7N) is reported as 0.26%. The “Δ % Main Peak” value ([1]; C7N) was −1.19%, the “Δ % HMW Peak” value ([1]; H6.5N) was 0.35% and the “Δ % Main Peak” value ([1]; H6.5N) was −2.88%. The “Δ % HMW Peak” value ([1]; H7.5N) was 0.44% and the “Δ % Main Peak” value ([1]; H7.5N) was −0.79%.
With `CC(C)C[C@H](NC(=O)[C@H](Cc1c[nH]c2ccccc12)NC(=O)[C@H](C)NC(=O)[C@@H](NC(=O)[C@H](Cc1ccccc1)NC(=O)[C@H](CCC(=O)O)NC(=O)[C@H](CCCCNC(=O)COCCOCCNC(=O)COCCOCCNC(=O)CC[C@H](NC(=O)CCCCCCCCCCCCCCCCC(=O)O)C(=O)O)NC(=O)[C@H](C)NC(=O)[C@H](CCCCN)NC(=O)[C@H](CCCCN)NC(=O)C(C)(C)NC(=O)[C@H](CC(=O)O)NC(=O)[C@H](CC(C)C)NC(=O)[C@H](Cc1ccc(O)cc1)NC(=O)[C@H](CCCCN)NC(=O)[C@H](CO)NC(=O)[C@H](Cc1ccc(O)cc1)NC(=O)[C@H](CC(=O)O)NC(=O)[C@H](CO)NC(=O)[C@@H](NC(=O)[C@H](Cc1ccccc1)NC(=O)[C@@H](NC(=O)CNC(=O)[C@H](CCC(N)=O)NC(=O)C(C)(C)NC(=O)[C@@H](N)Cc1ccc(O)cc1)[C@@H](C)O)[C@@H](C)O)C(C)C)C(=O)N[C@@H](CC(C)C)C(=O)N[C@@H](CCC(=O)O)C(=O)N[C@@H](CCC(=O)O)C(=O)O` [Example 6] the “Δ % HMW Peak” value ([1]; C6N) was −0.03%, the “Δ % Main Peak” value ([1]; C6N) was −0.98% and the “Δ % HMW Peak” value ([1]; C7N) was −0.26%. The “Δ % Main Peak” value ([1]; C7N) was 0.36%, the “Δ % HMW Peak” value ([1]; H6.5N) was 0.11% and the “Δ % Main Peak” value ([1]; H6.5N) was −1.17%. For the same compound, the “Δ % HMW Peak” value ([1]; H7.5N) was 0.14% and the “Δ % Main Peak” value ([1]; H7.5N) was −1.68%.
